Results from BindingDB's records for patent US9155743 (Astex Therapeutics, 2015).

By UniProt entry, the sequences of proteins in these tests, tags left out.
UniProt P98170, whole entry: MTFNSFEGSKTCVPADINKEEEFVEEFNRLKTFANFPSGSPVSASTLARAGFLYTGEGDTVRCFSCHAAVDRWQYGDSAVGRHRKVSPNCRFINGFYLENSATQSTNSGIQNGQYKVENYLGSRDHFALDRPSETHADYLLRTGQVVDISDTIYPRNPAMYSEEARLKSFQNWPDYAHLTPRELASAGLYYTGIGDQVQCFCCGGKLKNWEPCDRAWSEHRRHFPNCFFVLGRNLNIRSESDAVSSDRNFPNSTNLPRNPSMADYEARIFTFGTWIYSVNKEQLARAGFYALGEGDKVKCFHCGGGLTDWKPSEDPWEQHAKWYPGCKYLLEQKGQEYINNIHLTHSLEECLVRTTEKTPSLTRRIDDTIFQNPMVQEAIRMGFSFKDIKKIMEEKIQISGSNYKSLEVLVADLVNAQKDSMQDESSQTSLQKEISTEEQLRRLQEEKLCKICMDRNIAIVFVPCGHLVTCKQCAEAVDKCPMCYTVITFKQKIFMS

Target: E3 ubiquitin-protein ligase XIAP (Homo sapiens, UniProt P98170)
Assay: ASSAY_NAME: In Vitro Competitive Displacement Binding Assay DESCRIPTION: Modified SMAC peptides and compounds were tested for their ability to displace the fluorescent tracer from either XIAP, cIAP-1 or cIAP-2. BIR3 domains of cIAP-1, cIAP-2 and XIAP were incubated with test compounds or SMAC based peptides and their respective peptide probes (Peptide Protein Research) in assay buffer (50 mM …
Conditions: pH 7.5

IC50: in the range around 55 µM
SMILES: CN[C@@H](C)C(=O)Nc1ccc2c(n1)N[C@@H](C)C(=O)N2 [US9155743, 15]
